# Laboratory results published in patent US8828401B2, “Cytotoxic peptides and antibody drug conjugates thereof” (Pfizer Inc., priority 2011, dated 2014).
# System: N87 gastric xenografts
# Experiment: N87 gastric xenografts with anti-Notch ADCs
# Format: in vivo, nude (Nu/Nu) female mice
# Method: Humanized anti-Notch antibodies, hu28 and hu75, and rat-human chimeric anti-Notch antibodies, ch28 and ch75, were conjugated to various linker-payload combinations and tested in 37622A1 non-small cell lung cancer (NSCLC), HCC2429 lung cancer, MDA-MB-468 breast cancer and N87 gastric cancer xenograft models. For each model described below the first dose was given on Day 0. The tumors were measured at least once a week and their volume was calculated with the formula: tumor volume (mm^3)=0.5×(tumor width^2)(tumor length). The mean tumor volumes (±S.E.M.) for each treatment group were calculated having a maximum of 10 animals and a minimum of 6 animals to be included.
# Similar in vivo experiments were performed with the N87 gastric cancer cell line as described above. […] When the tumors reached a volume of 250 to 450 mm^3, the tumors were staged to ensure uniformity of the tumor mass among various treatment groups. The N87 gastric model was dosed intraveneously Q4dx4 with PBS vehicle, humanized anti-Notch ADCs, control huNeg-8.8 ADCs and cisplatin at the doses provided in Tables 16 and 17.
molecule,measurement,setting,value
hu75-vc0101: humanized anti-Notch antibody hu75 conjugated to mcValCitPABC-#54 (conjugate) heavy: EVQLVESGGGLVQPGGSLRLSCAASGYAFTDYWMTWVRQAPGKGLEWVAEISPNSGGTNFNEKFKGRFTISVDNAKNSLYLQMNSLRAEDTAVYYCARGEIRYNWFAYWGQGTLVTVSSASTKGPSVFPLAPSSKSTSGGTAALGCLVKDYFPEPVTVSWNSGALTSGVHTFPAVLQSSGLYSLSSVVTVPSSSLGTQTYICNVNHKPSNTKVDKKV[human IgG1 Fc left out] light: DIQMTQSPSSLSASVGDRVTITCKASQNVGNNIAWYQQKPGKAPKLLIYYASNRYTGVPSRFSGSGYGTDFTLTISSLQPEDFATYYCQRLYNSPFTFGGGTKVEIKRTVAAPSVFIFPPSDEQLKSGTASVVCLLNNFYPREAKVQWKVDNALQSGNSQESVTEQDSKDSTYSLSSTLTLSKADYEKHKVYACEVTHQGLSSPVTKSFNRGEC,tumor volume (mm^3 ± SEM),"Dose 1 mg/kg Q4dx4 iv, DAY 0",321 ± 9 mm^3
same,tumor volume (mm^3 ± SEM),"Dose 1 mg/kg Q4dx4 iv, DAY 4",392 ± 15 mm^3
same,tumor volume (mm^3 ± SEM),"Dose 1 mg/kg Q4dx4 iv, DAY 7",417 ± 25 mm^3
same,tumor volume (mm^3 ± SEM),"Dose 1 mg/kg Q4dx4 iv, DAY 11",331 ± 21 mm^3
same,tumor volume (mm^3 ± SEM),"Dose 1 mg/kg Q4dx4 iv, DAY 14",305 ± 17 mm^3
same,tumor volume (mm^3 ± SEM),"Dose 1 mg/kg Q4dx4 iv, DAY 18",267 ± 17 mm^3
same,tumor volume (mm^3 ± SEM),"Dose 1 mg/kg Q4dx4 iv, DAY 21",218 ± 23 mm^3
same,tumor volume (mm^3 ± SEM),"Dose 1 mg/kg Q4dx4 iv, DAY 26",185 ± 24 mm^3
same,tumor volume (mm^3 ± SEM),"Dose 1 mg/kg Q4dx4 iv, DAY 29",211 ± 37 mm^3
same,tumor volume (mm^3 ± SEM),"Dose 1 mg/kg Q4dx4 iv, DAY 33",251 ± 53 mm^3
same,tumor volume (mm^3 ± SEM),"Dose 1 mg/kg Q4dx4 iv, DAY 36",272 ± 59 mm^3
same,tumor volume (mm^3 ± SEM),"Dose 1 mg/kg Q4dx4 iv, DAY 39",304 ± 72 mm^3
same,tumor volume (mm^3 ± SEM),"Dose 1 mg/kg Q4dx4 iv, DAY 42",314 ± 73 mm^3
same,tumor volume (mm^3 ± SEM),"Dose 1 mg/kg Q4dx4 iv, DAY 47",334 ± 95 mm^3
same,tumor volume (mm^3 ± SEM),"Dose 1 mg/kg Q4dx4 iv, DAY 53",393 ± 115 mm^3
same,tumor volume (mm^3 ± SEM),"Dose 1 mg/kg Q4dx4 iv, DAY 62",463 ± 155 mm^3
same,tumor volume (mm^3 ± SEM),"Dose 1 mg/kg Q4dx4 iv, DAY 70",658 ± 241 mm^3
same,tumor volume (mm^3 ± SEM),"Dose 3 mg/kg Q4dx4 iv, DAY 0",324 ± 19 mm^3
same,tumor volume (mm^3 ± SEM),"Dose 3 mg/kg Q4dx4 iv, DAY 4",362 ± 35 mm^3
same,tumor volume (mm^3 ± SEM),"Dose 3 mg/kg Q4dx4 iv, DAY 7",303 ± 21 mm^3
same,tumor volume (mm^3 ± SEM),"Dose 3 mg/kg Q4dx4 iv, DAY 11",174 ± 14 mm^3
same,tumor volume (mm^3 ± SEM),"Dose 3 mg/kg Q4dx4 iv, DAY 14",172 ± 10 mm^3
same,tumor volume (mm^3 ± SEM),"Dose 3 mg/kg Q4dx4 iv, DAY 18",151 ± 10 mm^3
same,tumor volume (mm^3 ± SEM),"Dose 3 mg/kg Q4dx4 iv, DAY 21",130 ± 5 mm^3
same,tumor volume (mm^3 ± SEM),"Dose 3 mg/kg Q4dx4 iv, DAY 26",92 ± 14 mm^3
same,tumor volume (mm^3 ± SEM),"Dose 3 mg/kg Q4dx4 iv, DAY 29",104 ± 16 mm^3
same,tumor volume (mm^3 ± SEM),"Dose 3 mg/kg Q4dx4 iv, DAY 33",91 ± 18 mm^3
same,tumor volume (mm^3 ± SEM),"Dose 3 mg/kg Q4dx4 iv, DAY 36",86 ± 18 mm^3
same,tumor volume (mm^3 ± SEM),"Dose 3 mg/kg Q4dx4 iv, DAY 39",59 ± 16 mm^3
same,tumor volume (mm^3 ± SEM),"Dose 3 mg/kg Q4dx4 iv, DAY 42",81 ± 22 mm^3
same,tumor volume (mm^3 ± SEM),"Dose 3 mg/kg Q4dx4 iv, DAY 47",80 ± 25 mm^3
same,tumor volume (mm^3 ± SEM),"Dose 3 mg/kg Q4dx4 iv, DAY 53",86 ± 24 mm^3
same,tumor volume (mm^3 ± SEM),"Dose 3 mg/kg Q4dx4 iv, DAY 62",106 ± 35 mm^3
same,tumor volume (mm^3 ± SEM),"Dose 3 mg/kg Q4dx4 iv, DAY 70",148 ± 54 mm^3
same,tumor volume (mm^3 ± SEM),"Dose 5 mg/kg Q4dx4 iv, DAY 0",320 ± 11 mm^3
same,tumor volume (mm^3 ± SEM),"Dose 5 mg/kg Q4dx4 iv, DAY 4",315 ± 15 mm^3
same,tumor volume (mm^3 ± SEM),"Dose 5 mg/kg Q4dx4 iv, DAY 7",246 ± 12 mm^3
same,tumor volume (mm^3 ± SEM),"Dose 5 mg/kg Q4dx4 iv, DAY 11",156 ± 10 mm^3
same,tumor volume (mm^3 ± SEM),"Dose 5 mg/kg Q4dx4 iv, DAY 14",151 ± 7 mm^3
same,tumor volume (mm^3 ± SEM),"Dose 5 mg/kg Q4dx4 iv, DAY 18",128 ± 6 mm^3
same,tumor volume (mm^3 ± SEM),"Dose 5 mg/kg Q4dx4 iv, DAY 21",115 ± 7 mm^3
same,tumor volume (mm^3 ± SEM),"Dose 5 mg/kg Q4dx4 iv, DAY 26",82 ± 10 mm^3
same,tumor volume (mm^3 ± SEM),"Dose 5 mg/kg Q4dx4 iv, DAY 29",75 ± 12 mm^3
same,tumor volume (mm^3 ± SEM),"Dose 5 mg/kg Q4dx4 iv, DAY 33",73 ± 12 mm^3
same,tumor volume (mm^3 ± SEM),"Dose 5 mg/kg Q4dx4 iv, DAY 36",85 ± 9 mm^3
